A short description of one data set: clinical. The settings on record: both, human, plasma, oral, fasted.
In a further data set the test system is patients with ALS. The following applies: Part 2.

Structures are written as SMILES.

Take `CCCN[C@@H]1CCc2nc(N)sc2C1` [dexpramipexole, (6R)-2-amino-4,5,6,7-tetrahydro-6-(propylamino)benzothiazole]: the half-life was 6.65 ± 1.07 h in the data set “clinical” (50 mg, t1/2, single 50 mg); 6.96 ± 0.56 h in “clinical” (150 mg, t1/2, single 150 mg); 6.4 ± 1.73 h in “clinical” (300 mg, t1/2, single 300 mg).

As for `Nc1nc2ccc(OC(F)(F)F)cc2s1` [riluzole, reference compound], in the data set on patients with ALS, the “effect of riluzole on slope of ALSFRS R total score or mortality” value is recorded as “no effect”.
